Results from BindingDB's records for 2552117 (1989).
Some compounds may have been tested in ways that are not shown here.

Target: Epidermal growth factor receptor (Homo sapiens, UniProt P00533)
Conditions: pH 7.6

Work on `N#CC(C#N)=Cc1cc2c(cc1[N+](=O)[O-])OCO2` yielded an IC50 of 560 µM.
